Test system: PTTG1−/− HCT116 tumors
Test: Subcutaneous tumor implant in nude mice
Conditions: 50 mg/kg i.p. daily, measured at day 17

## O=C(CCCCCCC(=O)Nc1ccccc1)NO [SAHA, suberoylanilide hydroxamic acid]
  tumor volume: 672±334 mm^3
